For 1 compound, LD50 results are on record in patent US4599360A, “Ophthalmic anti-inflammatory agents” (Sankyo Company Limited, priority 1983, dated 1986).

The nature of data set [1]: Acute toxicity, oral administration. Also noted: species or system RFVL type mice. The settings on record: mouse, in vivo, LD50.
The next data set has as its system RFVL type mice. As to the kind of experiment: Acute toxicity, oral administration. The settings on record: mouse, in vivo.

In the case of `CC(C(=O)O)c1ccc(C=C2CCCCC2=O)cc1` (centres unmarked) [D, 2-[4-(2-oxocyclohexylidenemethyl)phenyl]propionic acid], the median lethal dose (LD50) was determined as 1800 mg/kg in data set [1] and 2000 mg/kg with RFVL type mice.

The term LD50 denotes the dose at which mortality reaches 50%. A higher LD50 goes with a less toxic substance.
